# Bioassay records as filed in PubChem.
# Nrf2 inh: inhibitors of Nrf2 signaling | A549 ARE-Fluc reporter, luciferase luminescence, 18-24 h | Potency, µM (highest dose often 46 µM), for the others: at the top dose activity change, negative = inhibition, usual class: inhibitors | 360,000 tested, 2.1% active; also: potency is read from the fitted curve at half-maximal effect; % is scaled to controls: 0 for no effect and ±100 for the full control effect; nearly all actives have a fitted effect of over 60% in size
#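 Concentration-response testing used A549 ARE_Fluc cells at 5000 cells/well. Following an 18-24 h compound incubation, viability was read by fluorescence (Ex 405/Em 525) and luciferase output by luminescence.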
# GALK inh: inhibitors of human galactokinase; P51570; Purified GALK, Kinase-Glo residual ATP luminescence; Potency, µM (series often up to 57.5 µM), for inactives: at the top dose activity change, negative = inhibition, hits mostly inhibitors; 270,000 tested, 0.007% active; also: potency is read from the fitted curve at half-maximal effect; % is scaled to controls: 0 for no effect and ±100 for the full control effect
#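 5 nM enzyme, 35 uM ATP, 100 uM galactose, 20 mM HEPES pH8.0, 5 mM MgCl2; 1 h RT; residual ATP by Kinase-Glo Plus luminescence, qHTS format.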
# A549 tox: counter-screen for Nrf2 inhibitors: cytotoxicity in A549 cells | A549 ARE-Fluc cells, CellTiter-Fluor viability, 18-24 h | Potency, µM (series often up to 46 µM), for the others: top-dose activity change, negative = cytotoxicity, most hits filed as inhibitors | 390,000 tested, 0.16% active | AID 504648; also: potency is read from the fitted curve at half-maximal effect; % is scaled to controls: 0 for no effect and ±100 for the full control effect
#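 Cytotoxicity counterscreen: CellTiter-Fluor fluorescence was measured in A549 ARE_Fluc cells after 18-24 h of compound exposure in a concentration series. The subsequent BugLite luminescent read reports ARE-luciferase activity.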
# miR-21 reporter: miR-21 reporter, rising signal | HeLa miR-21 FLuc reporter, luciferase, 48 h | Potency, µM (doses to about 38.3 µM), inactives show at the top dose reporter change, positive = more light | 340,000 tested, under 10 active | AID 2288; active = well fitted rising curve with a large enough effect; inconclusive = small, poorly fitted or top-dose-only effect; inactive = no such curve, though single readings can be large or run the other way;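 note: % of control where 0% means no effect; miR-21 action dims this reporter so a rising signal means less miR-21 action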
#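 HeLa miR-21-FLuc reporter line, endogenous miR-21; 2000 cells/well in DMEM/10% FBS; compound titration up to ~40uM final, 48 h, 37 degree Celsius; luciferase detection reagent, 15 min lysis, CCD luminescence.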
# Nrf2 activator: Nrf2 pathway activation; AREc32 ARE-luciferase reporter (MCF7-derived line), luminescence, 24 h; Potency, µM (series often up to 46.1 µM), inactives show at the top dose activation, usual class: activators; 410,000 tested, 0.31% active; AID 624171; also: potency is read from the fitted curve at half-maximal effect; % of control where 0% means no effect; nearly all actives have a fitted effect of over 65% in size
#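 AREc32 cells carrying an ARE-driven firefly luciferase reporter were seeded at 1000 cells/well in OPTI-MEM with 5% FBS, then exposed to compound for 24 hr at 37 deg C. Luminescence was read with Steady-Glo after 30 min at RT.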
# PI4K2A inh: PI4K2A (human) kinase inhibition | Q9BTU6 | activity change, negative = inhibition, % at 76.9 µM | AID 1346378 | 420,000 tested, 0.13% active | purified PI4K2A, ADP-Glo luminescence, 1 h; stronger effect = lower value; in the data active = activity change below about -50%; inconclusive = mostly about -30% to -49%;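 also: -100% = wells without enzyme as full effect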
#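 In this quantitative HTS, ADP production by PI4K2A was quantified luminescently after 1 h at ambient temperature; 100 microM adenosine served as plate-quality control.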
# Starred values were filed as active, the others as inactive; ? = inconclusive; nt = no result given; [ ] = dose if it differs, or a comment. In the library only some 2.2% were active in any assay of this set; here they are far more common. Unless noted, calls follow the shape of the dose curve; as a rule, active = well fitted curve in the direction sought with a large enough effect; inconclusive = small, poorly fitted or top-dose-only effect, or another doubt; inactive = no such curve, though single readings can be large; an effect the other way counts as inactive or inconclusive.
item	SMILES	Nrf2 inh	GALK inh	A549 tox
1	COc1cccc(OCC(=O)NN=C2c3ccccc3-c3ccccc32)c1	18.4µM*	-0.6%	1.9%[1.84 µM]
2	Cc1ccc2nc(N3C(=O)C(O)=C(C(=O)c4ccco4)C3c3cccs3)sc2c1 (stereo unspecified)	?	-7.4%	14.6µM*
3	Cc1ccc(NC(=O)c2ccc(CS(=O)(=O)Cc3ccccc3C)o2)c(C)c1	nt	nt	nt
4	CCc1nnc(NS(=O)(=O)c2ccc(NC(=O)c3ccc([N+](=O)[O-])s3)cc2)s1	nt	nt	nt
5	CC(=O)c1ccc(Nc2ccc([N+](=O)[O-])c3nonc23)cc1	-1.3%	-0.9%	?
6	O=C(O)c1ccc(Nc2ccc([N+](=O)[O-])c3nonc23)cc1	9.2%	0.0%	?
7	CCc1nnc(NS(=O)(=O)c2ccc(Nc3ccc([N+](=O)[O-])c4nonc34)cc2)s1	-26.9%	1.7%	23.1µM*
8	CCc1nnc(NS(=O)(=O)c2ccc(NS(=O)(=O)c3ccccc3[N+](=O)[O-])cc2)s1	10.7%	nt	0.1%

item	miR-21 reporter	Nrf2 activator	PI4K2A inh
1	-5.7%	-0.7%	1.0
2	-66.9%	?	0.4
3	nt	nt	2.2
4	nt	14.1µM*	-4.0
5	-23.4%	11.2µM*	-16.4
6	1.9%	-1.2%[9.22 µM]	-10.1
7	8.9%	2.2%	-25.6
8	0.0%	0.0%	-2.5

# The results go on.
item	SMILES	Nrf2 inh	GALK inh	A549 tox
9	CC(C)CC(O)(CC(C)C)c1cn(C(=O)N(c2ccccc2)c2ccccc2)nn1	nt	nt	nt
10	O=S1(=O)c2ccc(N3CC[C@H](O)C3)cc2O[C@H]2CCN1C2	nt	nt	nt
11	COc1ccc(NC(=O)C(OC(=O)CNC(=O)c2ccccc2)c2ccccc2)c(C)c1 (stereo unspecified)	26.1%	nt	-1.4%
12	CCOc1ccccc1NC(=O)C1CCN(S(=O)(=O)Cc2ccccc2)CC1	23.1µM*	nt	-1.1%
13	COc1ccc(C(C(=O)NC(C)(C)C)N(C[C@H]2CC[C@@H]([C@@H]3CC[C@H](CO)O3)O2)C(=O)c2ccccc2)cc1 (stereo partly specified)	7.5%	nt	-3.5%
14	COc1ccc(OC)c(C(=O)N(C[C@H]2CC[C@@H]([C@@H]3CC[C@H](CO)O3)O2)C(C(=O)NC(C)(C)C)c2ccc(-c3ccccc3)cc2)c1 (stereo partly specified)	25.9µM*	nt	?
15	CC(C)(C)NC(=O)C(c1ccc(-c2ccccc2)cc1)N(C[C@H]1CC[C@@H]([C@@H]2CC[C@H](CO)O2)O1)C(=O)c1ccc(-c2ccccc2)cc1 (stereo partly specified)	?	nt	?
16	CC(C)(C)NC(=O)C(c1ccc(-c2ccccc2)cc1)N(C[C@H]1CC[C@@H]([C@@H]2CC[C@H](CO)O2)O1)C(=O)c1cccc(Cl)c1 (stereo partly specified)	23.1µM*	nt	?

item	miR-21 reporter	Nrf2 activator	PI4K2A inh
9	nt	nt	-2.2
10	nt	nt	7.5
11	nt	nt	nt
12	26.5%	-0.2%	-3.4
13	nt	-0.9%	1.8
14	nt	5.2%	0.9
15	nt	-0.5%	2.1
16	nt	-0.1%	-1.8

# Other entries
item	SMILES	Nrf2 inh	GALK inh	A549 tox
17	O=C(Nc1ccc(S(=O)(=O)N2CCOCC2)cc1)c1cc(Cl)ccc1NS(=O)(=O)c1ccc(Cl)s1	nt	nt	nt
18	Cc1nonc1C(=O)N/N=C/c1ccc(O)cc1O	?	2.5%	?
19	O=C(N/N=C/c1cc(Cl)cc(Cl)c1O)c1ccncc1	9.2µM*	5.8%	-8.2%
20	O=C(N/N=C/c1ccc(O)cc1O)c1ccncc1	11.6µM*	nt	-16.8%
21	CCOc1ccc(CCNC(=O)c2cc3sccc3n2CC)cc1OC	nt	nt	nt
22	Cc1c(F)cc2c(=O)c(C(=O)O)cn3c2c1CCC3C (stereo unspecified)	nt	nt	nt
23	Cc1nc2ccc(S(=O)(=O)NCC(=O)NCc3ccc(F)cc3)cc2s1	nt	nt	nt
24	O=C(Nc1ccccc1)Nc1nc2ncccn2c1-c1ccc(F)cc1	nt	nt	nt

item	miR-21 reporter	Nrf2 activator	PI4K2A inh
17	nt	nt	0.9
18	1.7%	0.4%	-79.4*
19	28.0%	-0.9%	2.5
20	16.7%	-1.2%	2.7
21	nt	nt	-3.7
22	nt	nt	0.7
23	nt	nt	-1.2
24	nt	nt	-3.5

# Continued; the last 4 above are carried over.
item	SMILES	Nrf2 inh	GALK inh	A549 tox
21	CCOc1ccc(CCNC(=O)c2cc3sccc3n2CC)cc1OC	nt	nt	nt
22	Cc1c(F)cc2c(=O)c(C(=O)O)cn3c2c1CCC3C (stereo unspecified)	nt	nt	nt
23	Cc1nc2ccc(S(=O)(=O)NCC(=O)NCc3ccc(F)cc3)cc2s1	nt	nt	nt
24	O=C(Nc1ccccc1)Nc1nc2ncccn2c1-c1ccc(F)cc1	nt	nt	nt
25	CC[n+]1c(/C=C2\C=C(C)CC(C)(C)C2)sc2ccccc21	16.4µM*	0.9%	-13.4%[1.84 µM]
26	CC(C)C(=O)N1CC[C@H]2[C@H](CCCN2Cc2cc(F)cc(F)c2)C1	nt	nt	nt
27	Cc1ccc(-n2c3nc(=O)[nH]c(=O)c-3cc3cc([N+](=O)[O-])ccc32)cc1C	14.6µM*	-14.8%	?
28	Cc1ccc(S(=O)(=O)n2cnc3cc([N+](=O)[O-])ccc32)cc1C	-13.5%	-4.7%	-1.8%
29	CCOC(=O)c1c(NC(=O)/C=C/C(=O)O)sc(C)c1-c1ccc(C)c(C)c1	-14.7%	-1.3%	0.3%
30	COC(=O)c1sc(-c2ccc(Cl)cc2)cc1NC(=O)/C=C/C(=O)O	?	-3.7%	-15.1%
31	COC(=O)c1c(NC(=O)/C=C/C(=O)O)sc(C)c1-c1ccc(C)cc1	?	-4.6%	-26.2%
32	COC(=O)c1sc(-c2ccc(Cl)cc2)cc1NC(=O)COCC(=O)O	?	-2.4%	-14.4%

item	miR-21 reporter	Nrf2 activator	PI4K2A inh
21	nt	nt	-3.7
22	nt	nt	0.7
23	nt	nt	-1.2
24	nt	nt	-3.5
25	6.2%	?	6.4
26	nt	nt	-1.1
27	-9.3%	3.4%	-7.1
28	-0.1%	0.3%	2.7
29	11.4%	?	-13.8
30	-17.1%	8.91µM*	-16.9
31	12.1%	20µM*	-2.8
32	-17.5%	2.7%	-3.7

# (next part)
item	SMILES	Nrf2 inh	GALK inh	A549 tox
33	COC(=O)c1c(NC(=O)/C=C/C(=O)O)sc(C)c1-c1ccc(C)c(C)c1	-6.1%	1.7%	-1.6%
34	COC(=O)c1c(NC(=O)/C=C/C(=O)O)sc(C)c1-c1ccc(C(C)C)cc1	?	-3.5%	2.4%
35	O=C(Cn1c(=O)c2cccn2c2cccnc21)NCCCN1CCN(c2ccccc2)CC1	nt	nt	nt
36	CNc1cc2c(cc1S(=O)(=O)Nc1ccc(C)c(C)c1)CCC(=O)N2	?	nt	4.4%
37	O=C(Cn1nc(-c2ccccc2)c2ccccc21)Oc1ccccc1	nt	nt	nt
38	Cc1cc(C)nc(SCc2ccc(C(=O)N/N=C/c3cccc(O)c3O)cc2)n1	?	-0.1%	-2.4%
39	COc1ccc(O)c(/C=N/NC(=O)c2ccc(CSc3nc(C)cc(C)n3)cc2)c1	9.2µM*	-2.1%	-12.7%
40	COc1ccc(/C=N/NC(=O)c2ccc(CSc3nc(C)cc(C)n3)cc2)cc1O	20.6µM*	-0.2%	-24.6%
41	COc1ccc(-c2nc3ccc(NC(=O)COC(C)=O)cc3c(=O)n2Cc2ccccc2)cc1COc1ccc(NC(C)=O)cc1	?	nt	-6.0%
42	COc1ccc(S[C@]2(C(=O)N3CCN(C(C)=O)CC3)CC(=O)N(C(=O)CCc3ccccc3)[C@@H]2c2ccc(OC)cc2)cc1	nt	nt	nt
43	Cc1ccccc1NC(=S)NCCSc1ccc(Cl)cc1	23.1µM*	-0.3%	-21.3%

item	miR-21 reporter	Nrf2 activator	PI4K2A inh
33	9.3%	17.8µM*	-8.6
34	19.7%	10µM*	-16.4
35	nt	nt	-2.3
36	nt	nt	nt
37	nt	nt	1.2
38	18.4%	-0.3%	1.8
39	19.5%	4.2%	-0.1
40	-8.1%	6.3%	-9.6
41	nt	nt	nt
42	nt	nt	-1.5
43	5.8%	-0.6%	3.2
